Earlier results on one substance are cited in patent US9320750B2, “Compositions and methods of treatment of drug resistant cancers” (priority 2012, dated 2016).

The series deals with TNBC patients. Particulars: randomized phase II trial; cited from earlier work.

In the case of cetuximab, the “outcome on addition to carboplatin” value was “did not improve outcome”.
